These are literature values, as cited in patent US9061054B2, “ErbB-2 receptor targeting peptide” (The Curators of The University of Missouri, priority 2002, dated 2015).

For this series the following is noted: in vivo; cited from earlier work.

Take “Herceptin: humanized monoclonal antibody against ErbB-2”: the cardiac toxicity result is “aggravate doxorubicin-induced cardiac dysfunction”.
